Chains of the proteins cited; added tags and fusions are not shown. Lines headed by an entry give the natural chain unless they say otherwise; changes in a name come on top. Residues count along the entry.
UniProt P10635, whole entry: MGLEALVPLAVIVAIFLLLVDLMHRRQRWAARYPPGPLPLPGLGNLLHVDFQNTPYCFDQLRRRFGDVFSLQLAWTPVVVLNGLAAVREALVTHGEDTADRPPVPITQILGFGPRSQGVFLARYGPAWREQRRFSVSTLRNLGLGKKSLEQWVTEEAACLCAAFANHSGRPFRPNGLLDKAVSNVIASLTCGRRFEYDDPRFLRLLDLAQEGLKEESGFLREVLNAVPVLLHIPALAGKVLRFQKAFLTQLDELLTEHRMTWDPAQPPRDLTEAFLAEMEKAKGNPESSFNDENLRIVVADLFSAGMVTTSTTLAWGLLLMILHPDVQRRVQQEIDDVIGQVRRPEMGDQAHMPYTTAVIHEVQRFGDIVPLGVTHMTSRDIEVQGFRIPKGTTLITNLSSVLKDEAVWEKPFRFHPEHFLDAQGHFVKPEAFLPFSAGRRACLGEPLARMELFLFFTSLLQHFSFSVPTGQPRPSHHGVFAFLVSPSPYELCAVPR
UniProt P05181: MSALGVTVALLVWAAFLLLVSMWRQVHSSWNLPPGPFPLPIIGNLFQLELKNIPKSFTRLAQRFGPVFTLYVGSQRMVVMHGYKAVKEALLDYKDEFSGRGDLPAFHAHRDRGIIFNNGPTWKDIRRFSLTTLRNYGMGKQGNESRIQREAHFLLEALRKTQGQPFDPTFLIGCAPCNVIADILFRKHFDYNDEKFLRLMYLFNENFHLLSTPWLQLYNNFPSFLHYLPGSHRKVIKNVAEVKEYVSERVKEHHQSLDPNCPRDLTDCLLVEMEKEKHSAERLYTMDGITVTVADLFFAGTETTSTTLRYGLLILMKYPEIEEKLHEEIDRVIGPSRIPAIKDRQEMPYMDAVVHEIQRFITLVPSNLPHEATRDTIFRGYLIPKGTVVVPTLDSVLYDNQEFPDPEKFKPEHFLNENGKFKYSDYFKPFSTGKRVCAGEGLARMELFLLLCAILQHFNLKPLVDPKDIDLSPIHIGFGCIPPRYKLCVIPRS
UniProt P11509: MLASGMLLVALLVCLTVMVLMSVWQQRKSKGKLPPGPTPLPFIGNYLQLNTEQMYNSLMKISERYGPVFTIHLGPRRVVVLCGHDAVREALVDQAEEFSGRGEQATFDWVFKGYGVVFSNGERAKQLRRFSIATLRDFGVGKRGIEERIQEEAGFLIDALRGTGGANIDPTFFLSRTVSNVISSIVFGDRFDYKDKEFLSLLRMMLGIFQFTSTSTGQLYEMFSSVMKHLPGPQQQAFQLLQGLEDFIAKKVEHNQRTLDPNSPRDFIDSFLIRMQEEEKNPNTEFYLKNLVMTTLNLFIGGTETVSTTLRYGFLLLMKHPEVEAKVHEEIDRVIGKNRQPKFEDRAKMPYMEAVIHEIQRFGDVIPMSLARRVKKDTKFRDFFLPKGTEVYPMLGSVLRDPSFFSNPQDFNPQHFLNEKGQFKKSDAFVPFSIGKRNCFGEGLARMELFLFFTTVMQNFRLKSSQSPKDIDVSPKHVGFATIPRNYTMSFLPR
UniProt P20813: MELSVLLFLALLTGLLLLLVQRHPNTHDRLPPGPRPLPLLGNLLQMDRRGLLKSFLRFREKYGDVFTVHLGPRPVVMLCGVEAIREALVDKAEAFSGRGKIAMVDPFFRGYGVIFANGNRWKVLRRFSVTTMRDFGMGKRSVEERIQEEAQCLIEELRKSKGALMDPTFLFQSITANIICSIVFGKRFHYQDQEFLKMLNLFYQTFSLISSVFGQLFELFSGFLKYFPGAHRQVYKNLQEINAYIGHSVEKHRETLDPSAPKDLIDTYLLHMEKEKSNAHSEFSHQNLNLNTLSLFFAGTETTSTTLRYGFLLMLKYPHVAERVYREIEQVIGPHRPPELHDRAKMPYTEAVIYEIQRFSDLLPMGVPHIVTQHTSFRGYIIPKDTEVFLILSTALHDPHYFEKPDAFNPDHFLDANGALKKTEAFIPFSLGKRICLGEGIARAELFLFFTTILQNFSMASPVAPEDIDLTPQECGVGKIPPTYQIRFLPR
UniProt P10632, whole entry: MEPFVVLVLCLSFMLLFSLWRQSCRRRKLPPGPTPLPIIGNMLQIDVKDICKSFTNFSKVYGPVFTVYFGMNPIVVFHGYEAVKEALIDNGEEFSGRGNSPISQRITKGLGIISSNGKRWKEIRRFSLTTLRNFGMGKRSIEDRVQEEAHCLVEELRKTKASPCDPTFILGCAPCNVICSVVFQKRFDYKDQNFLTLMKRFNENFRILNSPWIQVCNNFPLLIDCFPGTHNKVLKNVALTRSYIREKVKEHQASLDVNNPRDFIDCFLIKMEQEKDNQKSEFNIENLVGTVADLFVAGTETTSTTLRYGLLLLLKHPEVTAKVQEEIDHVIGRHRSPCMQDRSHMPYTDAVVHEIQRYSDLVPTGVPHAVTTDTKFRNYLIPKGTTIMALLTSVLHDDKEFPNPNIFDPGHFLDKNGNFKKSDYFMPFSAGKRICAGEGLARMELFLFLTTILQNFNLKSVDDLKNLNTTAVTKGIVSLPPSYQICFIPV
UniProt P05177, 2-516: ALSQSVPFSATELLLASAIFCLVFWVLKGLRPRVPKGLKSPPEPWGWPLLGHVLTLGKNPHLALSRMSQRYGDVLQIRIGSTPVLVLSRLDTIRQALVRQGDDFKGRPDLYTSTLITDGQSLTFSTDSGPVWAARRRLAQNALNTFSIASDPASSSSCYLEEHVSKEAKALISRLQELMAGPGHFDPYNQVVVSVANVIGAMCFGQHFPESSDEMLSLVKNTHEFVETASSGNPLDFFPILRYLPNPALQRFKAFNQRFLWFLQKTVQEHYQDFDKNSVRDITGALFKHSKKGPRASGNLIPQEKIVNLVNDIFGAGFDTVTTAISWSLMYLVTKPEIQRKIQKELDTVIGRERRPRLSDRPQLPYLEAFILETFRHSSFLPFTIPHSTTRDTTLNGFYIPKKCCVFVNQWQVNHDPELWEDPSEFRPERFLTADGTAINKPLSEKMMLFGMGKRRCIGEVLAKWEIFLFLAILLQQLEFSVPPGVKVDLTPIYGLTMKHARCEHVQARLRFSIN

In paper PMC4937660, “In vitro evaluation of the effects of 4-aminopyridine on cytochrome P450 enzymes” (Journal of Drug Assessment, 2013):

Experiments:
CYP2D6 = CYP2D6 (Homo sapiens, UniProt P10635); settings: read-out: Direct inhibition, 0-min Pre-incubation / IC50, no pre-incubation, dextromethorphan 7.5 μM (about Km), NADPH-generating system, pH 7.4, 37 °C
CYP2E1 [1] = molecular target: T1, CYP2E1 (Homo sapiens, UniProt P05181); assay: chlorzoxazone 6-hydroxylation in human liver microsomes, HPLC-MS/MS
CYP2E1 [2] = molecular target: T1, CYP2E1; assay: as above; remark: listed apart in the source
CYP2A6 = CYP2A6 (Homo sapiens, UniProt P11509); settings: read-out: Direct inhibition, 0-min Pre-incubation / IC50, no pre-incubation, coumarin 0.75 μM (about Km), NADPH-generating system, pH 7.4, 37 °C
CYP2B6 = CYP2B6 (Homo sapiens, UniProt P20813); settings: read-out: Direct inhibition, 0-min Pre-incubation / IC50, no pre-incubation, bupropion 50 μM (about Km), NADPH-generating system, pH 7.4, 37 °C
CYP2C8 = CYP2C8 (Homo sapiens, UniProt P10632); settings: read-out: Direct inhibition, 0-min Pre-incubation / IC50, no pre-incubation, amodiaquine 7.0 μM (about Km), NADPH-generating system, pH 7.4, 37 °C
CYP1A2 = CYP1A2 (Homo sapiens, UniProt P05177); settings: read-out: Direct inhibition, 0-min Pre-incubation / IC50, no pre-incubation, phenacetin 40 μM (about Km), NADPH-generating system, pH 7.4, 37 °C

SMILES: Nc1ccncc1 [4-AP]
- IC50 (CYP2D6): > 30 µM
- IC50 (CYP2E1 [1]): ~125 µM
- Ki (CYP2E1 [2]): ~62.5 µM
- IC50 (CYP2A6): > 30 µM
- IC50 (CYP2B6): > 30 µM
- IC50 (CYP2C8): > 30 µM
- IC50 (CYP1A2): > 30 µM
